Source: article PMC10700596 (Nature Communications, 2023)
pIC50, pKi: −log10 of the molar value. Several values for one entry are separate records, joined by “and”; a condition that tells them apart may be missing. Equal entries are not always repeated. Where two headings read alike, the source gives them in different places.

Sequences of proteins named here, by UniProt entry; tags and fusion partners are left off.
UniProt P35408, whole entry: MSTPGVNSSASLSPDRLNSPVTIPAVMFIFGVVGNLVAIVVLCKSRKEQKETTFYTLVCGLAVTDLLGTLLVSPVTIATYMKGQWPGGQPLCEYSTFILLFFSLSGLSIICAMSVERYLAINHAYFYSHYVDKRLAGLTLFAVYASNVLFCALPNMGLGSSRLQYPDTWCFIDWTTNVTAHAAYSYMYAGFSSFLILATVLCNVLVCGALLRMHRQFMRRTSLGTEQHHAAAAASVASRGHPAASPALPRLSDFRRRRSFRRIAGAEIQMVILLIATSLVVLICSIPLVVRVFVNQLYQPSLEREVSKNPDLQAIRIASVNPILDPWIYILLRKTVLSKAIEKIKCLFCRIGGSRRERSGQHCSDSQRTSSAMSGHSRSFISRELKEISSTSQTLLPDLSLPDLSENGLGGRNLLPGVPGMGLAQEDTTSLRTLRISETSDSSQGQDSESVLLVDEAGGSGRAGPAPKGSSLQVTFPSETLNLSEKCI

Key:
EP4R [1] = molecular target: T1, EP4R (Homo sapiens, UniProt P35408); experiment: Radioligand (3H-PGE2) displacement assay at EP4R; type: binding; settings: for Binding assay - 3H-PGE2 displacment, EP4R: replicate values; for pKi: read-out: Radiologand displacement Ki, 3H-PGE2
EP4R [2] = molecular target: T1, EP4R; experiment: PRESTO-Tango β-arrestin2 recruitment assay; settings: for pIC50: read-out: PRESTO-Tango IC50; for pKi: read-out: PRESTO-Tango Ki*, calculated using the Cheng Prusoff equation
wild-type EP4R = wild-type EP4R (Homo sapiens, UniProt P35408); experiment: BRET β-arrestin2 recruitment assay, wild-type EP4R; settings: for pIC50: read-out: Arrestin-BRET IC50; for pKi: read-out: Arrestin-BRET Ki*, calculated using the Cheng Prusoff equation
EP4R [3] = molecular target: T1, EP4R; experiment: EP4R functional cyclic AMP production assay (Eurofins item 1872); settings: for cAMP assay response: technical replicates; for Kb: read-out: cAMP Assay KB
[4] = Pharmacokinetics in CD-1 mice (plasma, brain, CSF); settings: IP 10 mg/kg; for Plasma concentration C (mean): mean of 3 animals; for Final plasma concentration, individual sample: single animal
[5] = against 30 nM PGE2, Cheng-Prusoff equation

Row | SMILES | Binding assay - 3H-PGE2 displacment, EP4R (EP4R [1]; Log[Drug] -11.00) | pKi (EP4R [1]) | PRESTO-Tango -logIC50 (EP4R [2]) | pIC50 (EP4R [2]) | pKi (EP4R [2]) | Arrestin-BRET -logIC50 (wild-type EP4R) | pIC50 (wild-type EP4R) | pKi (wild-type EP4R) | cAMP assay response (EP4R [3]; compound 1e-6 M) | cAMP assay response (EP4R [3]; compound 1e-5 M) | Kb (EP4R [3]; [5]) [nM] | further results
1 | Cc1cc(C(=O)N[C@@H]2CC[C@@H](C(=O)O)CCC2(F)F)c(C)n1-c1ccccc1 [82] | 105.004 and 113.288 | 6.34 | 5.11 | 5.11 | 5.81 | 6.66 | 6.66 | 7.36 | 43.7 | 79 and 81.9 | 150 | Binding assay - 3H-PGE2 displacment, EP4R (EP4R [1]; Log[Drug] -6.00): 59.5849; Binding assay - 3H-PGE2 displacment, EP4R (EP4R [1]; Log[Drug] -9.00): 90.3175; Binding assay - 3H-PGE2 displacment, EP4R (EP4R [1]; Log[Drug] -10.00): 100.146 and 103.649; Plasma concentration C (mean) ([4]; 5 min): 716 ng/mL; Final plasma concentration, individual sample ([4]; 5 min, D=1, listed as Z4989072931, 10 mg/kg): 823 ng/mL and 643 ng/mL and 683 ng/mL; Plasma concentration C (mean) ([4]; 15 min): 3263 ng/mL; Final plasma concentration, individual sample ([4]; 15 min, D=1, listed as Z4989072931, 10 mg/kg): 3520 ng/mL and 3784 ng/mL and 2486 ng/mL; Plasma concentration C (mean) ([4]; 30 min): 4161 ng/mL; Final plasma concentration, individual sample ([4]; 30 min, D=1, listed as Z4989072931, 10 mg/kg): 3820 ng/mL and 4633 ng/mL and 4029 ng/mL; Plasma concentration C (mean) ([4]; 60 min): 4644 ng/mL; Final plasma concentration, individual sample ([4]; 60 min, D=1, listed as Z4989072931, 10 mg/kg): 4302 ng/mL and 3865 ng/mL and 5766 ng/mL; Plasma concentration C (mean) ([4]; 120 min): 1783 ng/mL; Final plasma concentration, individual sample ([4]; 120 min, D=1, listed as Z4989072931, 10 mg/kg): 1377 ng/mL and 1848 ng/mL and 2124 ng/mL; Plasma concentration C (mean) ([4]; 240 min): 232 ng/mL; Final plasma concentration, individual sample ([4]; 240 min, D=1, listed as Z4989072931, 10 mg/kg): 188 ng/mL and 310 ng/mL and 199 ng/mL; Plasma concentration C (mean) ([4]; 360 min): 61.9 ng/mL; Final plasma concentration, individual sample ([4]; 360 min, D=1, listed as Z4989072931, 10 mg/kg): 57.2 ng/mL and 54.1 ng/mL and 74.4 ng/mL; Plasma concentration C (mean) ([4]; 480 min): 41.3 ng/mL; Plasma concentration C (mean) ([4]; […]): 0 ng/mL; Final plasma concentration, individual sample ([4]; […], D=1): 0 ng/mL
2 | Cc1cc(C(=O)N[C@@H]2CC[C@@H](C(=O)O)CCC2(F)F)c(C)n1-c1ccccc1 [79] | 108.685 | 6.03 | 5.31 | 5.31 | 6.00 | 6.78 | 6.80 | 7.50 | 23.6 and 26.2 | 77.5 and 62.4 | 300 | 
3 | C[C@H](NC(=O)c1cc(Cl)ccc1Oc1ccc(F)cc1)c1ccc(C(=O)O)cc1 |  |  |  |  |  |  |  |  |  |  |  | potency at EP4R relative to 77 (EP4R [3]): approximately five-fold higher potency; Kb (EP4R [3]): 2.9 nM
